Values quoted from earlier work in publication PMC4604036 (NeuroImage, 2015).

Tested on: PDE10A
Conditions: read-out: PDE10A inhibition IC50; ref Tu et al., 2010; cited from earlier work

COc1ccc(Cc2nccc3cc(OC)c(OC)cc23)cc1OC [Papaverine, reference compound]
IC50: 0.036 µM
